In ChEMBL document CHEMBL1765070, “Structure-based design of potent and selective 3-phosphoinositide-dependent kinase-1 (PDK1) inhibitors” (J Med Chem, 2011):

Biological target: T1, 3-phosphoinositide-dependent protein kinase 1 (Homo sapiens, UniProt O15530)
T1 sequence (O15530 whole entry): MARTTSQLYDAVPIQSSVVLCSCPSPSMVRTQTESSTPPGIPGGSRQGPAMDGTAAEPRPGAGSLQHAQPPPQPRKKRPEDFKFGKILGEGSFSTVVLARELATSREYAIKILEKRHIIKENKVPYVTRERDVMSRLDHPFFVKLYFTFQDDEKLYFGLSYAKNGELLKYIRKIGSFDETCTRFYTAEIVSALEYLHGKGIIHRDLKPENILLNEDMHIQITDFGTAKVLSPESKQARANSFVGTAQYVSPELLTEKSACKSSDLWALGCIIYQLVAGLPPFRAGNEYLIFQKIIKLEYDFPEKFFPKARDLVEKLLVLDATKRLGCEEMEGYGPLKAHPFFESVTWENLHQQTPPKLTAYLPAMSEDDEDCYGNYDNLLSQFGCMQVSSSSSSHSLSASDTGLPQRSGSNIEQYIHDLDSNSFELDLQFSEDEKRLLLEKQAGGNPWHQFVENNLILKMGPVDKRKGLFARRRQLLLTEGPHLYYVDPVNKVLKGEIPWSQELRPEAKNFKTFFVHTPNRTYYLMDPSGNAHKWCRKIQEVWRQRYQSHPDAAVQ
Assay: Inhibition of PDK1

- IC50: 158 nM
Compound: CCNc1cc(-c2ccc3c(N)[nH]nc3c2)nc(N)n1
